Values quoted from earlier work as cited in PubChem BioAssay AID977611.

Experiments:
Test in all cases: PubChem AID 977611
[1] = target: anaerobic ribonucleotide-triphosphate reductase; settings: PDB protein-ligand complexes, literature Kd; protein: anaerobic ribonucleotide-triphosphate reductase; PDB entry 1H7A
[2] = target: serum albumin; settings: PDB protein-ligand complexes, literature Kd; protein: serum albumin; PDB entry 1GNJ
[3] = target: trp rna-binding attenuation protein; settings: PDB protein-ligand complexes, literature Kd; protein: trp rna-binding attenuation protein; PDB entry 1ADL
[4] = target: glutathione s-transferase; settings: PDB protein-ligand complexes, literature Kd; protein: glutathione s-transferase; PDB entry 1R4W
[5] = target: glutathione s-transferase class pi; settings: PDB protein-ligand complexes, literature Kd; protein: glutathione s-transferase class pi; PDB entry 1LBK
[6] = target: neocarzinostatin; settings: PDB protein-ligand complexes, literature Kd; protein: neocarzinostatin; PDB entry 1O5P
[7] = target: farnesyltransferase; settings: PDB protein-ligand complexes, literature Kd; protein: farnesyltransferase; PDB entry 1FPP
[8] = target: pol polyprotein; settings: PDB protein-ligand complexes, literature Kd; protein: pol polyprotein; PDB entry 1T7J
[9] = target: cation-dependent mannose-6-phosphate receptor; settings: PDB protein-ligand complexes, literature Kd; protein: cation-dependent mannose-6-phosphate receptor; PDB entry 1M6P
[10] = target: cation-independent mannose 6-phosphate receptor; settings: PDB protein-ligand complexes, literature Kd, protein: cation-independent mannose 6-phosphate receptor
[11] = target: phospholipase a2 isoform 3; settings: PDB protein-ligand complexes, literature Kd; protein: phospholipase a2 isoform 3; PDB entry 1TD7
[12] = target: oligo-peptide binding protein; settings: PDB protein-ligand complexes, literature Kd; protein: oligo-peptide binding protein; PDB entry 1QKA
[13] = target: DNA gyrase b; settings: PDB protein-ligand complexes, literature Kd; protein: DNA gyrase b; PDB entry 1KZN
[14] = target: 1RYH A; settings: PDB protein-ligand complexes, literature Kd; PDB entry 1RYH
[15] = target: alpha t cell receptor; settings: PDB protein-ligand complexes, literature Kd; protein: alpha t cell receptor; PDB entry 1G6R
[16] = target: glycogen phosphorylase b; settings: PDB protein-ligand complexes, literature Kd; protein: glycogen phosphorylase b; PDB entry 1GPY
[17] = target: phenazine biosynthesis protein phzf; settings: PDB protein-ligand complexes, literature Kd; protein: phenazine biosynthesis protein phzf; PDB entry 1U1W
[18] = target: osmoprotection protein (prox); settings: PDB protein-ligand complexes, literature Kd; protein: osmoprotection protein (prox); PDB entry 1SW1
[19] = target: 1H61 A; settings: PDB protein-ligand complexes, literature Kd; PDB entry 1H61
[20] = target: uridine phosphorylase; settings: PDB protein-ligand complexes, literature Kd; protein: uridine phosphorylase; PDB entry 1Q1G
[21] = target: pyridoxal phosphate biosynthetic protein pdxj; settings: PDB protein-ligand complexes, literature Kd; protein: pyridoxal phosphate biosynthetic protein pdxj; PDB entry 1M5W
[22] = target: auxin-binding protein 1; settings: PDB protein-ligand complexes, literature Kd; protein: auxin-binding protein 1; PDB entry 1LRH
[23] = target: uracil phosphoribosyltransferase; settings: PDB protein-ligand complexes, literature Kd; protein: uracil phosphoribosyltransferase; PDB entry 1JLR
[24] = target: nadh oxidase; settings: PDB protein-ligand complexes, literature Kd; protein: nadh oxidase; PDB entry 1NOX
[25] = target: Alkanal monooxygenase, Bacterial Luciferase; settings: PDB protein-ligand complexes, literature Kd; protein: Alkanal monooxygenase, Bacterial Luciferase; PDB entry 3FGC
[26] = target: flavodoxin; settings: PDB protein-ligand complexes, literature Kd, protein: flavodoxin
[27] = target: fmn-binding protein; settings: PDB protein-ligand complexes, literature Kd; protein: fmn-binding protein; PDB entry 1FLM
[28] = target: neutrophil gelatinase-associated lipocalin; settings: PDB protein-ligand complexes, literature Kd; protein: neutrophil gelatinase-associated lipocalin; PDB entry 1L6M
[29] = target: 1H62 A; settings: PDB protein-ligand complexes, literature Kd; PDB entry 1H62
[30] = target: antibody fab fragment; settings: PDB protein-ligand complexes, literature Kd; protein: antibody fab fragment; PDB entry 1IND
[31] = target: inhibitor of apoptosis protein 3; settings: PDB protein-ligand complexes, literature Kd; protein: inhibitor of apoptosis protein 3; PDB entry 1G3F
[32] = target: agglutinin alpha chain; settings: PDB protein-ligand complexes, literature Kd; protein: agglutinin alpha chain; PDB entry 1UGY
[33] = target: glycogen phosphorylase; settings: PDB protein-ligand complexes, literature Kd; protein: glycogen phosphorylase; PDB entry 1L5S
[34] = target: isopentenyl diphosphate delta-isomerase; settings: PDB protein-ligand complexes, literature Kd; protein: isopentenyl diphosphate delta-isomerase; PDB entry 1NFS
[35] = target: odorant-binding protein; settings: PDB protein-ligand complexes, literature Kd; protein: odorant-binding protein; PDB entry 1DZK
[36] = target: Major urinary protein 2, MUP chimera (MUPcd); settings: PDB protein-ligand complexes, literature Kd; protein: Major urinary protein 2, MUP chimera (MUPcd); PDB entry 2NND
[37] = target: major urinary protein; settings: PDB protein-ligand complexes, literature Kd; protein: major urinary protein; PDB entry 1QY1
[38] = target: hepatocyte growth factor receptor; settings: PDB protein-ligand complexes, literature Kd; protein: hepatocyte growth factor receptor; PDB entry 1R0P
[39] = target: troponin c, slow skeletal and cardiac muscles; settings: PDB protein-ligand complexes, literature Kd; protein: troponin c, slow skeletal and cardiac muscles; PDB entry 1LXF

## Nc1ncnc2c1ncn2[C@H]1C[C@H](O)[C@@H](COP(=O)(O)OP(=O)(O)OP(=O)(O)O)O1
[1]
  Kd: 19000 nM

## CCCCC/C=C\C/C=C\C/C=C\C/C=C\CCCC(=O)O
[2]
  Kd: 91 nM
[3]
  Kd: 4400 nM

## N[C@@H](CCC(=O)N[C@@H](CS)C(=O)NCC(=O)O)C(=O)O
[4]
  Kd: 90000 nM
[5]
  Kd: 668000 nM

## CN[C@H]1[C@@H](O[C@@H]2/C3=C/C#C[C@H]4O[C@@]4([C@H]4COC(=O)O4)C#CC3=C[C@H]2OC(=O)c2c(O)ccc3c(C)cc(OC)cc23)O[C@H](C)[C@H](O)[C@@H]1O
[6]
  Kd: 0.1 nM

## CC(C)=CCC/C(C)=C/CC/C(C)=C\COP(=O)(O)OP(=O)(O)O
[7]
  Kd: 10 nM

## CC(C)CN(C[C@@H](O)[C@H](Cc1ccccc1)NC(=O)O[C@H]1CCOC1)S(=O)(=O)c1ccc(N)cc1
[8]
  Kd: 2 nM

## O=P(O)(O)OC[C@H]1O[C@H](O)[C@@H](O)[C@@H](O)[C@@H]1O
[9]
  Kd: 8000 nM
[10]; PDB entry 1SYO
  Kd: 1 nM
[10]; PDB entry 1SZ0
  Kd: 1 nM

## O=C(O)c1cccnc1Nc1cccc(C(F)(F)F)c1
[11]
  Kd: 43000 nM

## NCCCC[C@H](NC(=O)[C@H](CCCN=C(N)N)NC(=O)[C@@H](N)CCCCN)C(=O)O
[12]
  Kd: 1200 nM

## CO[C@@H]1[C@@H](OC(=O)c2ccc(C)[nH]2)[C@@H](O)[C@H](Oc2ccc3c(O)c(NC(=O)c4ccc(O)c(CC=C(C)C)c4)c(=O)oc3c2Cl)OC1(C)C
[13]
  Kd: 1.2 nM

## Nc1nc2c(ncn2[C@@H]2O[C@H](COP(=O)(O)OP(=O)(O)NP(=O)(O)O)[C@@H](O)[C@H]2O)c(=O)[nH]1
[14]
  Kd: 27.6 nM

## CC[C@H](C)[C@H](NC(=O)[C@@H](N)CO)C(=O)N[C@@H](Cc1ccc(O)cc1)C(=O)N[C@@H](CCCN=C(N)N)C(=O)N[C@@H](Cc1ccc(O)cc1)C(=O)N[C@@H](Cc1ccc(O)cc1)C(=O)NCC(=O)N[C@@H](CC(C)C)C(=O)O
[15]
  Kd: 54000 nM

## O=P(O)(O)OC[C@H]1O[C@H](O)[C@H](O)[C@@H](O)[C@@H]1O
[16]
  Kd: 20000 nM

## Nc1c(O)cccc1C(=O)O
[17]
  Kd: 1400 nM

## C[N+]1(C)CCC[C@H]1C(=O)O
[18]
  Kd: 50 nM

## C[C@]12C=CC(=O)C=C1CC[C@@H]1[C@@H]2C(=O)C[C@@]2(C)[C@H]1CC[C@]2(O)[C@@H](O)C=O
[19]
  Kd: 13000 nM

## CSC[C@H]1N[C@@H](c2c[nH]c3c(=O)[nH]cnc23)[C@H](O)[C@@H]1O
[20]
  Kd: 2.7 nM

## CC(=O)[C@@H](O)[C@H](O)COP(=O)(O)O
[21]
  Kd: 54000 nM

## O=C(O)Cc1cccc2ccccc12
[22]
  Kd: 150 nM

## Nc1nc2c(ncn2[C@@H]2O[C@H](COP(=O)(O)OP(=O)(O)OP(=O)(O)O)[C@@H](O)C2O)c(=O)[nH]1 (stereo partly drawn)
[23]
  Kd: 465000 nM

## Cc1cc2nc3c(=O)[nH]c(=O)nc-3n(C[C@H](O)[C@H](O)[C@H](O)COP(=O)(O)O)c2cc1C
[24]
  Kd: 90 nM
[25]
  Kd: 120000 nM
[26]; PDB entry 1AKQ
  Kd: 0.79 nM
[26]; PDB entry 1AKR
  Kd: 0.82 nM
[26]; PDB entry 1AKT
  Kd: 3.2 nM
[26]; PDB entry 1AKW
  Kd: 2.6 nM
[26]; PDB entry 1AZL
  Kd: 2.4 nM
[26]; PDB entry 1C7F
  Kd: 0.3 nM
[26]; PDB entry 1CZK
  Kd: 1.5 nM
[26]; PDB entry 1CZL
  Kd: 0.71 nM
[26]; PDB entry 1CZR
  Kd: 1 nM
[27]
  Kd: 0.43 nM

## O=C(O)c1cccc(O)c1O
[28]
  Kd: 7.9 nM

## C[C@]12C=CC(=O)C=C1CC[C@@H]1[C@@H]2CC[C@]2(C)C(=O)CC[C@@H]12
[29]
  Kd: 17000 nM

## O=C(O)CN(CC(=O)O)C[C@H](Cc1ccc(NC(=S)NCCO)cc1)N(CC(=O)O)CC(=O)O
[30]
  Kd: 0.09 nM

## CC[C@H](C)[C@H](NC(=O)[C@@H]1CCCN1C(=O)[C@@H](NC(=O)[C@H](C)N)C(C)C)C(=O)N[C@@H](C)C(=O)N[C@@H](CCC(N)=O)C(=O)N[C@@H](CCCCN)C(=O)N[C@@H](CO)C(=O)N[C@@H](CCC(=O)O)C(=O)O
[31]
  Kd: 430 nM

## OC[C@H]1O[C@H](OC[C@H]2O[C@@H](O)[C@H](O)[C@@H](O)[C@@H]2O)[C@H](O)[C@@H](O)[C@H]1O
[32]
  Kd: 190000 nM

## O=c1[nH]c(=O)c2[nH]c(=O)[nH]c2[nH]1
[33]
  Kd: 550000 nM

## CN(C)CCOP(=O)(O)OP(=O)(O)O
[34]
  Kd: < 0.12 nM

## COc1nccnc1CC(C)C
[35]
  Kd: 800 nM
[36]
  Kd: 870 nM
[37]
  Kd: 300 nM

## COC(=O)[C@@]1(O)C[C@H]2O[C@]1(C)n1c3ccccc3c3c4c(c5c6ccccc6n2c5c31)C(=O)NC4
[38]
  Kd: 10 nM

## CC(C)COC[C@H](CN(Cc1ccccc1)c1ccccc1)N1CCCC1
[39]
  Kd: 80000 nM
